Read-outs that look alike come from different tables or passages of the source. Where a SMILES comes first, the peptide text is derived from it. Where no end group is shown, it is not given here.
How the values were obtained:
[1] = for Solubility in 5 mM SS in D5W w/ 4% DMSO: 5 mM sodium succinate in D5W; for Solubility in 5 mM SS in D5W w/ 4% DMSO / Solubility in 5 mM SS in D5W w/o DMSO: no polyICLC; for Solubility in 5 mM SS in D5W w/o DMSO: no DMSO
[2] = 5 mM sodium succinate in D5W with 4% DMSO, Peptide Solubility (at 0.4 mg/mL) (Y/N), 5 mM SS/D5W with 4% DMSO, 0.4 mg/mL
[3] = 5 mM sodium succinate in D5W with 4% DMSO, Peptide Solubility (at 2 mg/mL) (Y/N), 5 mM SS/D5W with 4% DMSO, 2 mg/mL
[4] = […] sodium succinate in D5W with 4% DMSO, Peptide Solubility (at 0.4 mg/mL) (Y/N), […] SS/D5W with 4% DMSO, 0.4 mg/mL
[5] = […] sodium succinate in D5W with 4% DMSO, Peptide Solubility (at 2 mg/mL) (Y/N), […] SS/D5W with 4% DMSO, 2 mg/mL

Molecule	Solubility in 5 mM SS in D5W w/ 4% DMSO [1]	solubility (physchem; [2])	solubility (physchem; [3])	solubility (physchem; [4])	solubility (physchem; [5])	Formulation Observations (at 0.4 mg/mL) ([1]; 5 mM SS/D5W with 4% DMSO)	Formulation Observations (at 2 mg/mL) ([1]; 5 mM SS/D5W with 4% DMSO)	Formulation Observations (at 0.4 mg/mL) ([1]; […] SS/D5W with 4% DMSO)	Formulation Observations (at 2 mg/mL) ([1]; […] SS/D5W with 4% DMSO)	Solubility in 5 mM SS in D5W w/o DMSO [1]
CC[C@H](C)[C@H](NC(=O)[C@H](CCCCN)NC(=O)[C@H](CCCCN)NC(=O)[C@H](CCCCN)NC(=O)[C@H](CCCCN)NC(=O)[C@@H](N)CCCCN)C(=O)N[C@@H](CCSC)C(=O)N[C@@H](Cc1ccccc1)C(=O)N[C@@H](C)C(=O)N[C@H](C(=O)N[C@@H](CC(C)C)C(=O)N[C@@H](CCC(N)=O)C(=O)N[C@@H](CCCNC(=N)N)C(=O)N[C@@H](CO)C(=O)N[C@@H](CO)C(=O)N[C@@H](CC(C)C)C(=O)N[C@@H](Cc1c[nH]c2ccccc12)C(=O)N[C@@H](CS)C(=O)N[C@@H](CC(C)C)C(=O)N[C@@H](CS)C(=O)N[C@@H](CO)C(=O)N[C@@H](CC(N)=O)C(=O)N[C@@H](Cc1c[nH]cn1)C(=O)O)[C@@H](C)O [Peptide 12-4K] (H-KKKKKIMFATLQRSSLWCLCSNH-OH)	Yes									
CSCC[C@H](NC(=O)[C@H](CCCCN)NC(=O)[C@H](CCCCN)NC(=O)[C@H](CCCCN)NC(=O)[C@@H](N)CCCCN)C(=O)N[C@@H](Cc1ccccc1)C(=O)N[C@@H](C)C(=O)N[C@H](C(=O)N[C@@H](CC(C)C)C(=O)N[C@@H](CCC(N)=O)C(=O)N[C@@H](CCCNC(=N)N)C(=O)N[C@@H](CO)C(=O)N[C@@H](CO)C(=O)N[C@@H](CC(C)C)C(=O)N[C@@H](Cc1c[nH]c2ccccc12)C(=O)N[C@@H](CS)C(=O)N[C@@H](CC(C)C)C(=O)N[C@@H](CS)C(=O)N[C@@H](CO)C(=O)N[C@@H](CC(N)=O)C(=O)N[C@@H](Cc1c[nH]cn1)C(=O)O)[C@@H](C)O [Peptide 12b-4K] (H-KKKKMFATLQRSSLWCLCSNH-OH)	Yes									
CSCC[C@H](N)C(=O)N[C@@H](Cc1ccccc1)C(=O)N[C@@H](C)C(=O)N[C@H](C(=O)N[C@@H](CC(C)C)C(=O)N[C@@H](CCC(N)=O)C(=O)N[C@@H](CCCNC(=N)N)C(=O)N[C@@H](CO)C(=O)N[C@@H](CO)C(=O)N[C@@H](CC(C)C)C(=O)N[C@@H](Cc1c[nH]c2ccccc12)C(=O)N[C@@H](CS)C(=O)N[C@@H](CC(C)C)C(=O)N[C@@H](CS)C(=O)O)[C@@H](C)O [Peptide L12c]	No	< 400 µg/mL	< 2000 µg/mL	< 400 µg/mL	< 2000 µg/mL	Glassy	cloudy, large	cloudy	large	
CC(C)C[C@H](NC(=O)[C@H](CS)NC(=O)[C@H](Cc1c[nH]c2ccccc12)NC(=O)[C@H](CC(C)C)NC(=O)[C@H](CO)NC(=O)[C@H](CO)NC(=O)[C@H](CCCNC(=N)N)NC(=O)[C@H](CCC(N)=O)NC(=O)[C@H](CC(C)C)NC(=O)[C@@H](N)[C@@H](C)O)C(=O)N[C@@H](CS)C(=O)N[C@@H](CO)C(=O)N[C@@H](CC(N)=O)C(=O)N[C@@H](Cc1c[nH]cn1)C(=O)O [Peptide L12d] (H-TLQRSSLWCLCSNH-OH)	Yes	> 400 µg/mL	> 2000 µg/mL	> 400 µg/mL	> 2000 µg/mL	clear	clear	clear	clear	
CC[C@H](C)[C@H](NC(=O)[C@H](CCCCN)NC(=O)[C@H](CO)NC(=O)[C@H](CCC(=O)O)NC(=O)[C@H](C)NC(=O)[C@H](CCCCN)NC(=O)[C@H](CC(C)C)NC(=O)[C@H](Cc1ccccc1)NC(=O)[C@H](CCSC)NC(=O)[C@H](Cc1ccc(O)cc1)NC(=O)CNC(=O)[C@H](CC(=O)O)NC(=O)[C@H](CCCNC(=N)N)NC(=O)[C@H](CCCCN)NC(=O)[C@@H]1CCCN1C(=O)[C@@H](N)CCCCN)C(=O)N[C@@H](CCSC)C(=O)N[C@@H](Cc1ccccc1)C(=O)N[C@@H](C)C(=O)N[C@H](C(=O)N[C@@H](CC(C)C)C(=O)N[C@@H](CCC(N)=O)C(=O)N[C@@H](CCCNC(=N)N)C(=O)N[C@@H](CO)C(=O)N[C@@H](CO)C(=O)N[C@@H](CC(C)C)C(=O)N[C@@H](Cc1c[nH]c2ccccc12)C(=O)N[C@@H](CS)C(=O)N[C@@H](CC(C)C)C(=O)N[C@@H](CS)C(=O)N[C@@H](CO)C(=O)N[C@@H](CC(N)=O)C(=O)N[C@@H](Cc1c[nH]cn1)C(=O)O)[C@@H](C)O [Peptide L15] (H-KPKRDGYMFLKAESKIMFATLQRSSLWCLCSNH-OH; N-terminus and C-terminus assumed)	No	< 400 µg/mL	< 2000 µg/mL	> 400 µg/mL	> 2000 µg/mL	Cloudy over	cloudy	clear	clear	
DGYMFLKAESKIMFAT [Peptide L11e]	No	< 400 µg/mL	< 2000 µg/mL	< 400 µg/mL	< 2000 µg/mL	Glassy	cloudy, large	glassy	gel	
ESKIMFATLQRSSLWC [Peptide L11g]	No	< 400 µg/mL	< 2000 µg/mL	> 400 µg/mL	< 2000 µg/mL	Glassy	cloudy	clear	gel over time	
FLKAESKIMFATLQRS [Peptide L11f]		< 400 µg/mL	< 2000 µg/mL	> 400 µg/mL	> 2000 µg/mL	Glassy	cloudy	clear	clear	
FLKAESKIMFATLQRSSLWCL [Peptide L11]		< 400 µg/mL	< 2000 µg/mL	> 400 µg/mL	< 2000 µg/mL	Glassy	cloudy,	clear	glass	
GPPARVPAVPFDLHFCRSSIMKPKRD [Peptide 8]	Yes									Yes
GPPARVPAVPFDLHFCRSSIMKPKRD [Peptide L8]		> 400 µg/mL	> 2000 µg/mL			clear	clear			
KKKKKAESKIMFATLQRSSLWCL [Peptide 11d-4K]	Yes									
KKKKKPKRDGYMFLKAESKIMFAT [Peptide 10b-4K]	Yes									
KPKRDGYMFLKAESKI [Peptide L10c]	Yes	> 400 µg/mL	> 2000 µg/mL			clear	clear			Yes
KPKRDGYMFLKAESKIMFATLQR [Peptide 10]	Yes									
KPKRDGYMFLKAESKIMFATLQR [Peptide L10]		> 400 µg/mL	> 2000 µg/mL			clear	clear			
LHFCRSSIMKPKRDGYMFLKAESKI [Peptide 9]	Yes									Yes
LHFCRSSIMKPKRDGYMFLKAESKI [Peptide L9]		> 400 µg/mL	> 2000 µg/mL			clear	clear			

From patent US20210275657A1, “NEOANTIGENS AND USES THEREOF” (BioNTech US Inc., priority 2018, published 2021)
